Test results published in PubChem BioAssay (NCI).
Several values for one entry are separate records, joined by “and”; a condition that tells them apart may be missing. Equal values may be shown once. This is a selection; strong and weak results do not stand in their true shares.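 Compound tested at a single concentration for 48 hours in 96-well plates; a percent growth value below 10 was scored as active.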 Activity calls are given as the source filed them.

Each molecule was assayed on MDA-MB-468 breast (assay: NCI-60 one-dose screen, 48 h (100 = growth as untreated, 0 = no growth, -100 = all killed)). Details: 10 µM unless noted.

Row | Compound | growth
1 | O=C(CBr)c1ccc([N+](=O)[O-])cc1 | inactive: 110%
2 | c1cc(-c2nn[nH]n2)ccc1-c1nn[nH]n1 | inactive: 97.5%
3 | OP1OCCO1 | inactive: 107%
4 | CCN(CCCl)C(Cc1ccccc1)c1ccccc1 (stereo not given) | inactive: 94.8%
5 | CSc1ccc(Nc2c([N+](=O)[O-])cc([N+](=O)[O-])cc2[N+](=O)[O-])cc1 | active: -9.71%
6 | ClP1(Cl)=NP(Cl)(Cl)=NP(Cl)(Cl)=N1 | inactive: 109%
7 | CN(C)C(=O)NP(=O)(N(C)C)N(C)C | inactive: 100%
8 | CCOC(=O)N1CCN(CCCl)CC1 | inactive: 94%
9 | CN(CCCl)/N=N/c1nc2nc[nH]c(=O)c2[nH]1 | inactive: 105%
10 | ClCCN1c2ccccc2Sc2ccccc21 | inactive: 110%
11 | CN1C(=O)N(C)P12(Cl)N(C)C(=O)N2C | inactive: 107%
12 | Nc1ccc([As](=O)(O)c2ccc(N)cc2)cc1 | inactive: 116%
13 | CCOP(=O)(Nc1ccccc1Cl)OCC | inactive: 91.8%
14 | CC(C)=N/N=C(\N)N[N+](=O)[O-] | inactive: 109%
15 | CCOP(=O)(CCBr)OCC | inactive: 99.8% and inactive: 95.6%
